Reference: ChEMBL document CHEMBL1126513, “Quinuclidine-based NK-1 antagonists I: 3-benzyloxy-1-azabicyclo[2.2.2]octanes” (Bioorg Med Chem Lett, 1993)

Protein sequences, listed by entry. Tags and fused reporters are not part of them.
UniProt P25103, whole entry, looked up: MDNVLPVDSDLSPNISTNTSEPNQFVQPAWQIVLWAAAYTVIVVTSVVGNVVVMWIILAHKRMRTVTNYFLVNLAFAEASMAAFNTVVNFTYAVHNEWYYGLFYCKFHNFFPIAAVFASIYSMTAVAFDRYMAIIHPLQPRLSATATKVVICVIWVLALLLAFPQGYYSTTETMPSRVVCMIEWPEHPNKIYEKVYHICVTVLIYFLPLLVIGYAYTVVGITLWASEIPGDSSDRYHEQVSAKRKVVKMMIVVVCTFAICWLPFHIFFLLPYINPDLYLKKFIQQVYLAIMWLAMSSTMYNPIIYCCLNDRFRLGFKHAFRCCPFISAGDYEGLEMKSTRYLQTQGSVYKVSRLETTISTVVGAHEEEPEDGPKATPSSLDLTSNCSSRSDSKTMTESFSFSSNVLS

Target: Substance-P receptor (Homo sapiens, UniProt P25103)
Assay: Displacement of [125]Substance P Binding from human Neurokinin NK1 receptor in CHO Cells

`O=C(O[C@H]1C2CCN(CC2)[C@H]1C(c1ccccc1)c1ccccc1)c1ccccc1` gave a pIC50 of less than 6.00.

pIC50: −log10 of the molar value.
